{"source": "ChEMBL document CHEMBL5331109", "about": "“Design and Pharmacological Chaperone Effects of N-(4'-Phenylbutyl)-DAB Derivatives Targeting the Lipophilic Pocket of Lysosomal Acid α-Glucosidase” (J Med Chem, 2023)", "test_system": "Lysosomal alpha-glucosidase (Homo sapiens), P10253 [M519V]", "experiment": "Induction of GAA M519V mutant activity in Pompe patient fibroblast cells assessed as fold increase in intracellular activity using 4- methylumbelliferyl-alpha-D-glucopyranoside measured after 7 days at 10 uM relative to control", "type": "cell-based", "conditions": "time 7.0 day", "data": [{"smiles": "CCCCN1C[C@@H](O)[C@H](O)[C@H]1CO", "values": [{"measurement": "fold change (FC)", "result": 5.7}]}]}
